Measurements taken from article PMC4408270 (Bioorganic & medicinal chemistry letters, 2015).

What was measured:
[1] = target: T1, CCK2R TM3 (V3.28T, S3.29T) (Homo sapiens, UniProt P32239, S131T/V130T); experiment: 125I-CCK competition binding, chimeric construct
T1 sequence (P32239 1-447 V130T/S131T): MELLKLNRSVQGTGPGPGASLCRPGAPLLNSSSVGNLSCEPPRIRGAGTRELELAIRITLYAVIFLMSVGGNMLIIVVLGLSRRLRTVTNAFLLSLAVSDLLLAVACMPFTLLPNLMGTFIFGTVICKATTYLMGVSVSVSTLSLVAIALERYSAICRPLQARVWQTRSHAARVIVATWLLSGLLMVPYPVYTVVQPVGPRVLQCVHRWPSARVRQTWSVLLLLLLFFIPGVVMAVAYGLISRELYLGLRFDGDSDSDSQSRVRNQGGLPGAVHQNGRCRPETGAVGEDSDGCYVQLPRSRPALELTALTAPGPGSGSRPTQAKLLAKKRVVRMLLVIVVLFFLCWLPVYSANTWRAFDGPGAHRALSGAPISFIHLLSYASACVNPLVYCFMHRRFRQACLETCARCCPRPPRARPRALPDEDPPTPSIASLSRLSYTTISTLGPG

[2] = target: T2, CCK2R TM6 (V6.51I, Y6.52F) (Homo sapiens, UniProt P32239, V349I/Y350F); experiment: 125I-CCK competition binding, chimeric construct
T2 sequence (P32239 1-447 V349I/Y350F): T1 sequence (P32239 1-447 V130T/S131T) with T130V, T131S, V349I, Y350F

CCK2R TM2 (T2.61N) [3] = target: T3, CCK2R TM2 (T2.61N) (Homo sapiens, UniProt P32239, T111N); experiment: 125I-CCK competition binding, chimeric construct
T3 sequence (P32239 1-447 T111N): T1 sequence (P32239 1-447 V130T/S131T) with T111N, T130V, T131S

[4] = target: T1, CCK2R TM3 (V3.28T, S3.29T); experiment: 125I-BDZ-2 competition binding, chimeric construct
CCK2R TM2 (T2.61N) [5] = target: T3, CCK2R TM2 (T2.61N); experiment: 125I-BDZ-2 competition binding, chimeric construct; conditions: NDB = no detectable binding
CCK2R = target: T4, CCK2R (Homo sapiens, UniProt P32239); experiment: Competition binding of orthosteric radioligand 125I-CCK, CHO cell membranes
T4 sequence (P32239 1-447): T1 sequence (P32239 1-447 V130T/S131T) with T130V, T131S

O=C(CN1C(=O)C(NC(=O)Nc2ccccc2)C(=O)N(c2ccccc2)c2ccccc21)Nc1ccccc1 (stereo not drawn)
IC50 [1]: 51 ± 2.8 nM | IC50 [2]: 68.3 ± 9.3 nM | IC50 (CCK2R TM2 (T2.61N) [3]): 188 ± 31.2 nM | IC50 [4]: 135 ± 12.5 nM | IC50, 125I-BDZ-2 (CCK2R TM2 (T2.61N) [5]): NDB | IC50 (CCK2R): 46.3 ± 10.6 nM

Residue numbers refer to the chain shown, from its start.
